Target: CB2 receptors (Homo sapiens, UniProt P34972)
Experiment: Antagonism of HU-210 G-protein activation in CHO-CB2 membranes
Assay type: biochemical
Conditions: HU-210 100 nM

The chains behind the UniProt entries cited, without tags or fusion partners.
UniProt P34972, whole entry: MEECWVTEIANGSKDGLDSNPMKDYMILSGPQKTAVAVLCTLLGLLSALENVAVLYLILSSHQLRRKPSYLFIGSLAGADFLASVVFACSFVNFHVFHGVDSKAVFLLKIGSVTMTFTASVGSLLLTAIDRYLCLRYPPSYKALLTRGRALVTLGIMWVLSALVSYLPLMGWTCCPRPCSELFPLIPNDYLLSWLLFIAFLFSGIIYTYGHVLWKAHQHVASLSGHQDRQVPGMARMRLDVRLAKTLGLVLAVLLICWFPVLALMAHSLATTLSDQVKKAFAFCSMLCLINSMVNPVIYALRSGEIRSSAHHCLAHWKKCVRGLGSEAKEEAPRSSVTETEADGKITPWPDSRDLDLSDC

N-[(1S)-endo-1,3,3-Trimethylbicyclo[2.2.1]heptan-2-yl]-5-(4-chloro-3-methylphenyl)-1-(4-ethoxybenzyl)-pyrazole-3-carboxamide [SR-144528]
minimal concentration required to completely block HU-210-mediated G-protein activation by CB2 receptors: 3 μM
